From publication PMC7608814 (Science Advances, 2020)

Target: recombinant α-tubulin (TUBA1A) protein (human, UniProt Q71U36)
Experiment: pull-down

B1: GST fusion protein containing wild-type human SMYD2 (natural protein)
chain: MRAEGLGGLERFCSPGKGRGLRALQPFQVGDLLFSCPAYAYVLTVNERGNHCEYCFTRKEGLSKCGRCKQAFYCNVECQKEDWPMHKLECSPMVVFGENWNPSETVRLTARILAKQKIHPERTPSEKLLAVKEFESHLDKLDNEKKDLIQSDIAALHHFYSKHLGFPDNDSLVVLFAQVNCNGFTIEDEELSHLGSAIFPDVALMNHSCCPNVIVTYKGTLAEVRAVQEIKPGEEVFTSYIDLLYPTEDRNDRLRDSYFFTCECQECTTKDKDKAKVEIRKLSDPPKAEAIRDMVRYARNVIEEFRRAKHYKSPSELLEICELSQEKMSSVFEDSNVYMLHMMYQAMGVCLYMQDWEGALQYGQKIIKPYSKHYPLYSLNVASMWLKLGRLYMGLEHKAAGEKALKKAIAIMEVAHGKDHPYISEIKQEIESH
- binding result: binds
